Our source for the IC50 values is ChEMBL document CHEMBL3232795, “Using 'biased-privileged' scaffolds to identify lysine methyltransferase inhibitors” (Bioorg Med Chem, 2014).

The target in test [1] is T1, Histone-lysine N-methyltransferase SETD7 (Homo sapiens, UniProt Q8WTS6).
T1 sequence (Q8WTS6 whole entry): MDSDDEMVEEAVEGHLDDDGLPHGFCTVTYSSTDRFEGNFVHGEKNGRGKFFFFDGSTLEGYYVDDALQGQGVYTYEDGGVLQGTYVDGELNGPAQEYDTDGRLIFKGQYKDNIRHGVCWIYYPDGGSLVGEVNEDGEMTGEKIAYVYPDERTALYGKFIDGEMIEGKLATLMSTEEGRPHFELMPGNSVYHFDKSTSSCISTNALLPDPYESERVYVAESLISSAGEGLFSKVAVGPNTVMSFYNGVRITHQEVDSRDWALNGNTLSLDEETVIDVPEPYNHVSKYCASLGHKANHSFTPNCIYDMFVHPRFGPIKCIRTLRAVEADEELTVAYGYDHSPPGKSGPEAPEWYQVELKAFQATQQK
The test can be described thus: Inhibition of SET7 (unknown origin)-mediated methylation of histone H3(1-20)cys-biotin after 5 mins by scintillation proximity assay in presence of [3H]-S-adenosyl-methionine. Background: SPA uses beads or plates that emit light when radiolabelled molecules are held near them.

The target in test [2] is T1, Histone-lysine N-methyltransferase SETD7. The test can be described thus: Inhibition of 50 nM SET7 (unknown origin)-mediated methylation of histone H3(1-20)cys-biotin at 15 to 50 uM after 5 mins by scintillation proximity assay in presence of [3H]-S-adenosyl-methionine.
Test [3] shares this target. The test can be described thus: Inhibition of 100 nM SET7 (unknown origin)-mediated methylation of histone H3(1-20)cys-biotin at 15 to 50 uM after 5 mins by scintillation proximity assay in presence of [3H]-S-adenosyl-methionine.
The target is the same in test [4]. The test can be described thus: Inhibition of methyl-transferase activity in GST-tagged recombinant SET7/9 (unknown origin) expressed in Escherichia coli BL21 using H3(1-20)-cys-biotin as substrate preincubated for 5 mins followed by substrate addition by ELISA.
Test [5] has the same target. The test can be described thus: Inhibition of 10 nM SET7 (unknown origin)-mediated methylation of histone H3(1-20)cys-biotin at 15 to 50 uM after 5 mins by scintillation proximity assay in presence of [3H]-S-adenosyl-methionine.

For the compound `O=C(O)c1cccc(NCc2cccc(-n3ccc4c(-c5ccc(C(F)(F)F)cc5)cccc43)c2)c1`, the IC50 in test [1] was determined as 22.5 µM; in test [2] it was 22.5 µM; in test [3] it was 19.5 µM; in test [4] it was 9.93 µM; in test [5], 19 µM.

In general, IC50 refers to the concentration that inhibits the measured activity by half.
